From ChEMBL document CHEMBL1149967, “Synthesis and antitumor activity of novel distamycin derivatives” (Bioorg Med Chem Lett, 1996) come the findings set out here.

In this assay the test system is L1210. The assay can be described thus: In vitro inhibition of L1210 murine leukemia (Drug sensitivity was determined by counting surviving cells after 48 hr of continuous exposure to at least 4 conc. of drug).

For `Cl.Cn1cc(NC(=O)c2cc(NC(=O)c3cc(NC(=O)c4ccc(N(CCCl)CCCl)cc4)cn3C)cn2C)cc1C(=O)NCCC(=N)N` [TALLIMUSTINE CHLORIDE], the IC50 is 0.0503 µg/mL.
